Reference: PubChem BioAssay (EPA / NIEHS)
Listed are the inconclusive results; actives and inactives stand elsewhere. The calls were made as follows: active = hit-call score of the fitted dose curve at least 0.9, where 1 is the maximum; inconclusive = response in the unintended direction; inactive = score below 0.9.

Amino acid sequences for entries named in this document (tags omitted). A change or cut given only in a name is not applied to a line headed by its entry.
UniProt Q07869: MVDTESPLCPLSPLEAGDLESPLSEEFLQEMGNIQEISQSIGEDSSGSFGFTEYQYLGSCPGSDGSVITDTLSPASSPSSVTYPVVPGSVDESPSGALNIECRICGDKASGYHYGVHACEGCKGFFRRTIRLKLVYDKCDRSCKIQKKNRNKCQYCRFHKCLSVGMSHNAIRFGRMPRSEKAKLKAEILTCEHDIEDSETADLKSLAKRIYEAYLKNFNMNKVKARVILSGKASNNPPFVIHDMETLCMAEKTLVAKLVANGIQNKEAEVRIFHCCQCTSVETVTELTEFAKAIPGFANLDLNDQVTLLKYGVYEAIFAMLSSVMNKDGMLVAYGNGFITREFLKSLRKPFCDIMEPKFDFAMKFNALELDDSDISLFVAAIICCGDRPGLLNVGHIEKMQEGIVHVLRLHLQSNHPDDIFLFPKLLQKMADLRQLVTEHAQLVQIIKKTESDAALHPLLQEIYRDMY
UniProt Q03181: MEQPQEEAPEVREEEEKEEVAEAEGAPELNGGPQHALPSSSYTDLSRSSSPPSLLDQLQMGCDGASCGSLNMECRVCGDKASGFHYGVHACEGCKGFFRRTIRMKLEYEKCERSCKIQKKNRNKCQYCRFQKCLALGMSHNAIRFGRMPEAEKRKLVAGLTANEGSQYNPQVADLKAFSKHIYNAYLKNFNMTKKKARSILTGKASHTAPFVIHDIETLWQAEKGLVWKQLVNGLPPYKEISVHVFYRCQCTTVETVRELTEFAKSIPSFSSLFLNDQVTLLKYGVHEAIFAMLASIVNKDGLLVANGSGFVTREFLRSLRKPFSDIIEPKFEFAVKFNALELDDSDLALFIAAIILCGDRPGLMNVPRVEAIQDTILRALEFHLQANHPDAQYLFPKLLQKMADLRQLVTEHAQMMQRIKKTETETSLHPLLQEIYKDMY
UniProt P10826, whole entry, looked up: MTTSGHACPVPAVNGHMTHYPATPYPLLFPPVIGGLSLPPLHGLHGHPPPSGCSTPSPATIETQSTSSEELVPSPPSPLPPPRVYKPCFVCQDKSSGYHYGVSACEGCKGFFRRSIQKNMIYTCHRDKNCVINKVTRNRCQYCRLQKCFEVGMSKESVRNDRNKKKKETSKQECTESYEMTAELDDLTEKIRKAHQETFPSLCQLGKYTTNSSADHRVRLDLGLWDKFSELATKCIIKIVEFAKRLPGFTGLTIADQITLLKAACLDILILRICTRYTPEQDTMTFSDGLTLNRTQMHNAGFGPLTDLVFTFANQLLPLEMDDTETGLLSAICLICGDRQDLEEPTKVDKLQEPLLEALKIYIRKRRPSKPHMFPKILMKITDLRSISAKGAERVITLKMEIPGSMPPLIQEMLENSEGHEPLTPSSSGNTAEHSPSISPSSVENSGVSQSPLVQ
UniProt P13631, whole entry, looked up: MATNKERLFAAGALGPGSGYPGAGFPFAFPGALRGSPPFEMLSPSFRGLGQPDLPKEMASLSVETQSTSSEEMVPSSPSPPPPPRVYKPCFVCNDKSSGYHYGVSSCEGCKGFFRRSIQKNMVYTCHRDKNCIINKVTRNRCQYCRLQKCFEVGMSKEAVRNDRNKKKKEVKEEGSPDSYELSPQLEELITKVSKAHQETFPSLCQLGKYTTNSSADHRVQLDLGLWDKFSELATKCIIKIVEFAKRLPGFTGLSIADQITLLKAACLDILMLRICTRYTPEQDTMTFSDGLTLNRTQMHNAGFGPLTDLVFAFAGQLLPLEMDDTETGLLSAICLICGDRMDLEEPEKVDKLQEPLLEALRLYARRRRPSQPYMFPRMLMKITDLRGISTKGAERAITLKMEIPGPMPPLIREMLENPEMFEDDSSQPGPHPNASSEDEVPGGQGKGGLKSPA
UniProt P51449: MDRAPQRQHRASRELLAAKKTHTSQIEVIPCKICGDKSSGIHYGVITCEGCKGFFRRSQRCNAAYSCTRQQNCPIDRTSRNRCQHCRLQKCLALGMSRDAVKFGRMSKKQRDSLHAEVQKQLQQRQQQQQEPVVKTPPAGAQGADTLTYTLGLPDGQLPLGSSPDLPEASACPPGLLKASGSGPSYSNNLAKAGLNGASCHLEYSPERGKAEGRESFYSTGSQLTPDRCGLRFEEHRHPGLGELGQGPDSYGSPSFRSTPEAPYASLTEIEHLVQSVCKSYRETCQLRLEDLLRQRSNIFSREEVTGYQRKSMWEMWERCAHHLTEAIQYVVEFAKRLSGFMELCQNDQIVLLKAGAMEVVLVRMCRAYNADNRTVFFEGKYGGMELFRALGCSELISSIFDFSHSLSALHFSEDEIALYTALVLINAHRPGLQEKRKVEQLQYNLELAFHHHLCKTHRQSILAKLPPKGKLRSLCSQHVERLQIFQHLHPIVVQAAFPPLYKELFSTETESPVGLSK
UniProt P19793: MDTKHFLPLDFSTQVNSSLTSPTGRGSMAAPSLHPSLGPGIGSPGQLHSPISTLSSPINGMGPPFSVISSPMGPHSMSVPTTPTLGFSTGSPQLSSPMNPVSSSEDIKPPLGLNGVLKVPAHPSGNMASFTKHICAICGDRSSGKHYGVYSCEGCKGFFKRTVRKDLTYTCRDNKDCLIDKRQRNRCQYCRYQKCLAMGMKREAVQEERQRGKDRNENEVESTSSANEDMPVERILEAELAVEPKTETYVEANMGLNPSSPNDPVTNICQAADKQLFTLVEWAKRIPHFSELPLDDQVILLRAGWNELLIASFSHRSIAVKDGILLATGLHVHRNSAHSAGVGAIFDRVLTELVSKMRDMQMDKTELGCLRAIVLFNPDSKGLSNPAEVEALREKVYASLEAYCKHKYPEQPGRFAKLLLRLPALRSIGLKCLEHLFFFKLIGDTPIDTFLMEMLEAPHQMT
UniProt P10827: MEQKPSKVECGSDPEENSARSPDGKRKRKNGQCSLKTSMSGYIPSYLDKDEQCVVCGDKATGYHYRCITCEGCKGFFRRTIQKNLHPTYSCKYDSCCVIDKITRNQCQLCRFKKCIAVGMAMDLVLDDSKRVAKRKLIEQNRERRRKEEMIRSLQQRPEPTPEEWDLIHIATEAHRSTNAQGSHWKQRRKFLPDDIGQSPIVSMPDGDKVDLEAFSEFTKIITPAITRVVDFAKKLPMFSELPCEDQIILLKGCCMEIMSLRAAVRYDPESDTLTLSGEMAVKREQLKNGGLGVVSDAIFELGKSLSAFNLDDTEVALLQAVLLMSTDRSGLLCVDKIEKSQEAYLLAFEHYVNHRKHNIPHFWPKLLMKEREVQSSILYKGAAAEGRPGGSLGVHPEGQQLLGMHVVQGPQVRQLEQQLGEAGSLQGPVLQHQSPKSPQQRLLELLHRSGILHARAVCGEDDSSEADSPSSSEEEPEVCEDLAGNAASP
UniProt P11474: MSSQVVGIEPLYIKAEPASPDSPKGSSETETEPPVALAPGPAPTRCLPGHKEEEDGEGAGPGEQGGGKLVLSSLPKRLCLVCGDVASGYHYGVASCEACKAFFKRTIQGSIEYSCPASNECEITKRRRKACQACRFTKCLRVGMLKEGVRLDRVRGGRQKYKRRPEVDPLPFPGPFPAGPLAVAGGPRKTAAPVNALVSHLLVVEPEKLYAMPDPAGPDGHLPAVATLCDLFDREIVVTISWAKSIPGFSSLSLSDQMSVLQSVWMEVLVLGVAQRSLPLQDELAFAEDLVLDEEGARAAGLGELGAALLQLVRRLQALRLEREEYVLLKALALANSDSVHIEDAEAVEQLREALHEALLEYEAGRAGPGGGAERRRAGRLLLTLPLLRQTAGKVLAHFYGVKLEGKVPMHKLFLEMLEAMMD
UniProt P10276, whole entry, looked up: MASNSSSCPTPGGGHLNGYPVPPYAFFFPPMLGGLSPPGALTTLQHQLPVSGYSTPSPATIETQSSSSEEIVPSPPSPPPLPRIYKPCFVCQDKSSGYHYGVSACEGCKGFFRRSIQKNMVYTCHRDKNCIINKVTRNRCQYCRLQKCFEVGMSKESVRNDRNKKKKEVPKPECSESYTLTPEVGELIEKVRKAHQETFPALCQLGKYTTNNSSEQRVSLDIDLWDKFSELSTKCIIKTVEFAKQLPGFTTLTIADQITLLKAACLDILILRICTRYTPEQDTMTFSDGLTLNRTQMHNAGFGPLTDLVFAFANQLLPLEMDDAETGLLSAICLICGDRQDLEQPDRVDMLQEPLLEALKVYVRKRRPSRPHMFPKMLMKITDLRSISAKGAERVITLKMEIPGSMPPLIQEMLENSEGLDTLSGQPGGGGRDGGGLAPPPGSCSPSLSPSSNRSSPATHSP

Tests used:
[1] = ACEA_ER_80hr: ACEA Biosciences xCELLigence Real-Time Cell Analysis on Estrogen Receptor Agonism for Proliferation (AID 2282667); settings: T47D proliferation, impedance (xCELLigence), 80 h
How it was run: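 T-47D cells monitored by electrical impedance (xCELLigence) with compound present throughout; 80 h timepoint, positive-direction fitting versus DMSO. Eight-point 1:4 dilutions from 100 uM final, duplicate plates.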

[2] = ATG_M_32_TRANS: Attagene TRANS-FACTORIAL HepG2 Assay for M32 Transcription Factor (Internal Marker) (AID 2282984); settings: HepG2 Attagene TRANS M32 internal marker reporter
How it was run: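 Read-out: fluorescent reporter cDNA fragments resolved by capillary electrophoresis after RT-PCR of total RNA. Transfected HepG2 cells were exposed to chemical for 24 h. Activity scored in the positive direction relative to DMSO.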

[3] = target: human Peroxisome Proliferator-activated Receptor alpha (PPARa), PPARA (gene 5465) (UniProt Q07869); experiment: ATG_PPARa_TRANS: Attagene TRANS-FACTORIAL HepG2 Assay for human Peroxisome Proliferator-activated Receptor alpha (PPARa) (AID 2283001);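 also: potency for gain of reporter signal over DMSO so agonist or activator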
How it was run: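 Transient HepG2 transfection, GAL4-UAS reporters, NR-Gal4 chimeras; 24 h compound exposure. Readout: reporter transcripts by RT-PCR, 6-FAM primer extension, HpaI digest, capillary electrophoresis. Positive direction vs DMSO baseline.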

[4] = target: human Peroxisome Proliferator-activated Receptor delta (PPARd), PPARD (gene 5467) (UniProt Q03181); experiment: ATG_PPARd_TRANS: Attagene TRANS-FACTORIAL HepG2 Assay for human Peroxisome Proliferator-activated Receptor delta (PPARd) (AID 2283002)
How it was run: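 Fluorescence from capillary electrophoresis of labelled RT-PCR reporter fragments gives the signal; DMSO sets baseline. Cells: HepG2 transiently carrying GAL4-UAS reporter units plus chimeric nuclear receptor-Gal4 proteins, exposed to chemicals for 24 h.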

[5] = target: human Retinoic Acid Receptor beta (RARb), RARB (gene 5915) (UniProt P10826); experiment: ATG_RARb_TRANS: Attagene TRANS-FACTORIAL HepG2 Assay for human Retinoic Acid Receptor beta (AID 2283004)
How it was run: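 HepG2 cells were transiently transfected with GAL4-UAS reporter units that report activity of exogenous chimeric NR-Gal4 proteins, then exposed to compound for 24 h. Reporter mRNA was quantified by RT-PCR with capillary electrophoresis fluorescence, as gain of signal over DMSO.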

[6] = target: human Retinoic Acid Receptor gamma (RARg), RARG (gene 5916) (UniProt P13631); experiment: ATG_RARg_TRANS: Attagene TRANS-FACTORIAL HepG2 Assay for human Retinoic Acid Receptor gamma (RARg) (AID 2283009);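 also: AC50 is for reporter induction above DMSO meaning RARg activation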
How it was run: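 Readout: reporter transcript levels via RT-PCR, 6-FAM primer-extension labelling, HpaI digestion and capillary electrophoresis. Cells: HepG2 carrying transfected RARg-GAL4 chimera plus UAS reporter set. Dosing 24 h; DMSO negative control.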

[7] = target: human RAR-related Orphan Receptor gamma (RORg), RORC (gene 6097) (UniProt P51449); experiment: ATG_RORg_TRANS: Attagene TRANS-FACTORIAL HepG2 Assay for human RAR-related Orphan Receptor gamma (RORg) (AID 2283011);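 also: potency for induction of reporter transcripts above DMSO so activators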
How it was run: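 HepG2 cells transiently transfected with GAL4-UAS reporter units and chimeric RORg-Gal4 construct; after 24 h chemical exposure, reporter mRNA measured by RT-PCR with fluorescent capillary electrophoresis, gain of signal fitted against DMSO.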

[8] = target: Retinoic acid receptor RXR-alpha (Homo sapiens) (UniProt P19793); experiment: ATG_RXRa_TRANS: Attagene TRANS-FACTORIAL HepG2 Assay for human Retinoid X Receptor alpha (RXRa) (AID 2283012)
How it was run: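 Read-out: fluorescent reporter-transcript fragments quantified by capillary electrophoresis after RT-PCR. Transiently transfected HepG2 cells carrying GAL4-UAS reporters and NR-GAL4 chimeras were exposed to chemical for 24 h; activity scored as increase over DMSO.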

[9] = target: human Thyroid Receptor alpha (THRa1), THRA (gene 7067) (UniProt P10827); experiment: ATG_THRa1_TRANS: Attagene TRANS-FACTORIAL HepG2 Assay for human Thyroid Receptor alpha (THRa1) (AID 2283014)
How it was run: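 HepG2 cells transiently transfected with chimeric NR-Gal4 and GAL4-UAS reporter units, dosed 24 h. Reporter mRNA quantified by RT-PCR, fluorescent labeling, HpaI digestion and capillary electrophoresis; gain-of-signal fit versus DMSO.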

[10] = ATG_XTT_Cytotoxicity: Cytotoxicity Assessment in the Attagene TRANS-FACTORIAL HepG2 Assay (AID 2283584);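 also: XTT signal for cell number as viability in transfected HepG2 cells; cells exposed to compound for 24 h before reading; active means loss of viability signal versus DMSO baseline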
How it was run: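 HepG2 cells transiently transfected with GAL4-UAS multiple reporter units, dosed 24 h; cytotoxicity read by XTT as loss of signal versus DMSO baseline.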

[11] = target: Steroid hormone receptor ERR1 (Homo sapiens) (UniProt P11474); experiment: ATG_ERRa_TRANS: Attagene TRANS-FACTORIAL HepG2 Assay for human Estrogen-Related Receptor alpha (ERRa) (AID 2282971); settings: HepG2 Attagene TRANS reporter, ERRa transactivation
How it was run: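 HepG2 cells transiently transfected with GAL4-UAS reporter units and chimeric NR-Gal4 constructs; after 24 hour compound incubation, reporter mRNA quantified by RT-PCR, fluorescent labelling and capillary electrophoresis, gain of signal versus DMSO.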

[12] = target: Retinoic acid receptor alpha (Homo sapiens) (UniProt P10276); experiment: ATG_RARa_TRANS: Attagene TRANS-FACTORIAL HepG2 Assay for human Retinoic Acid Receptor alpha (RARa) (AID 2283005);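 also: potency for increased reporter signal meaning RARa activation over DMSO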
How it was run: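 HepG2 transiently transfected with multiplex GAL4-UAS reporter units including a human RARa–GAL4 chimera; 24 h compound exposure. Reporter mRNA quantified by RT-PCR, 6-FAM labeling and capillary electrophoresis; gain of signal versus DMSO.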

Measured: AC50

CCCCC(CC)CO[P+](=O)OCC(CC)CCCC (configuration not stated)
inconclusive: [1] 50 µM | [2] 100 µM | [3] 100 µM | [4] 3.07 µM | [5] 51.3 µM | [6] 19.8 µM | [7] 100 µM | [8] 100 µM | [9] 100 µM | [10] 100 µM

N#CSc1ccc([N+](=O)[O-])cc1[N+](=O)[O-]
inconclusive: [11] 19.2 µM | [12] 9.14 µM
